Data as given in patent US20240358848A1, “ANTITUMOR COMPOUND AND USE THEREOF” (priority 2021, published 2024).

Key:
[1] = tested on: NCI-N87 subcutaneous xenograft; assay: In vivo anti-tumor efficacy assay, NCI-N87 subcutaneous xenograft nude mice model; set-up: species or system BALB/c nude mice; details: 10 mg/kg, tail vein, once
[2] = tested on: Human breast cancer cells SK-BR-3; assay: In vitro anti-proliferation test in human-derived tumor cells (CellTiter Glo, 120 h), SK-BR-3; assay type: cell-based; details: SK-BR-3, 120 h; for Highest inhibition rate %: highest ADC concentration 1 μM; for IC50: read-out: Absolute IC50
[3] = tested on: gastric cancer cells NCI-N87; assay: In vitro anti-proliferation test in human-derived tumor cells (CellTiter Glo, 120 h), NCI-N87; assay type: cell-based; details: NCI-N87, 120 h, highest ADC concentration 1 μM

Substance | Tumor Growth Inhibition TGI (%) [1] [%] | Highest inhibition rate % [2] [%] | IC50 [2] [nM] | Highest inhibition rate % [3] | Highest inhibition rate % ([2]; 1 µM)
Trastuzumab ADC I-1-a | 111 | 92.53 | 8 | – | –
Trastuzumab ADC I-3-a | – | 91.74 | 6 | – | –
Trastuzumab ADC I-12-a | – | – | – | 93.77% and 92.17% | 92.52% and 99.60%

Where “and” joins values, the source holds several entries; their conditions need not be identical. Equal values may be shown once.
